The conditions of this data set: mouse, in vivo, iv.

For “2′-O-(4″-O-tocopherylsuccinoyl)-paclitaxel [Prodrug 1]”, the “prodrug plasma clearance compared with 3H-CHE label” value is “approximately the same rate”.

Values taken from patent US8486924B2, “Taxane delivery system” (Celator Pharmaceuticals, Inc., priority 2007, dated 2013).
